## Binding of CDR-mutated scFvs to a peptide of the spike HR2 region

The measurements come from Li et al. 2023 (doi:10.1038/s41467-023-39022-2) through the FLAb antibody collection.

Binding partner: SARS-CoV-2 spike HR2 peptide, sequence PDVDLGDISGINAS.

Parent: Ab-14, a human scFv built as VH, a (GGGGS)3 linker, VL. Only the CDRs of the heavy chain vary.
VH: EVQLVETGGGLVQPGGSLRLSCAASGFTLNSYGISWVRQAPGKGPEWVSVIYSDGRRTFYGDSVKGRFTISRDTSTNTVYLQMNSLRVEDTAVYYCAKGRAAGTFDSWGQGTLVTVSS
VL: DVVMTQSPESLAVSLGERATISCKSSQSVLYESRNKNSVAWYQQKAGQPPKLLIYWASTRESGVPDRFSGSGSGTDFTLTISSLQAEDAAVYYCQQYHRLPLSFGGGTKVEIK

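Phage display of a naive human antibody library on the peptide gave the parent. This is the validation round: designs drawn from the data on random variants, tested in the same kind of assay. Several design methods are mixed in this list. In AlphaSeq, yeast of one mating type display the scFv and yeast of the other type display the target. After mating in shaken culture at 30 °C for 16 h, diploids were selected and their barcode pairs sequenced. Read counts were normalised to the haploid input and turned into Kd by a linear fit to BCL2-family pairs of known affinity, for each replicate. The assay was run in six technical replicates.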

Variants are written as CDR1, CDR2 and CDR3 of the heavy chain (limits as in the source). Parent: GFTLNSYGIS, VIYSDGRRTFYGDSVK, GRAAGTFDS.
The read-out is the apparent dissociation constant on a log10 scale (nM): the lower, the stronger.
A pair that was not seen in that replicate is written "ND"; this usually means weak binding, but a binder can also be missed.
Values of this round are not directly comparable with the first-round values of the same sequences.

| CDR-H1 | CDR-H2 | CDR-H3 | log10 Kd, replicates |
|---|---|---|---|
| GYDIEEYGIS | VIYADGKRNAFANSFK | GKWAGTFDD | ND / ND / 1.25 / 2.06 / 1.86 / ND |
| GFDLNSYGIS | VIYSDGRRTFYGDSVK | GRTAGKFDS | ND / ND / ND / ND / ND / ND |
| GFDLDEYGIS | VIYADGMRTAYSDDVK | GNVAGTFDT | -0.84 / -0.79 / -1.43 / -0.98 / -0.76 / -1.25 |
| GFTLDSYGIS | VDYSDGRRTFYGDSVK | GRMAGTFDP | ND / ND / ND / ND / ND / ND |
| GFDLNSYGIS | VIYSDGRRTFYQDDVK | GNAAGTFDS | 0.03 / 0.02 / -0.14 / 0.14 / 0.40 / 0.38 |
| GFTLNEYGIS | VIYSDGRRTFYGDSVK | GRMAGTFDD | 1.60 / 1.93 / 0.89 / 1.16 / 1.38 / 0.88 |
| GFDLNEYGIS | VIYADGMRTFYTDSVK | GEFAGTFDK | -0.67 / -1.38 / -0.25 / -0.32 / -1.05 / -0.98 |
| GFELNSYGIS | VIYSDGRRTFYHDSVK | GRMAGTFDS | ND / 1.59 / 0.44 / 0.89 / 0.47 / 2.53 |
| GFSLNEYGIS | VIYSDGRRTFYGDSVK | GQAAGTFDR | 0.11 / 0.95 / 0.48 / 0.96 / 0.69 / 0.84 |
| GFDLNEYGIS | VIYADGRRTFYVDSVK | GQNAGTFDV | -0.75 / -0.36 / 0.03 / 0.08 / -0.77 / -0.54 |
| GFTLNSYGIS | VIYSDGKRTFYADSVK | GHAAGTFDL | 0.71 / 0.86 / 0.48 / 0.62 / 1.57 / 1.38 |
| GFSLNSYGIS | VIYSDGRRTFYIDSVK | GRAAGTFDQ | 1.56 / 0.99 / 1.21 / 1.61 / 2.00 / 1.27 |
| GADLNEYGIS | VIYADGSRTEYADTVK | GKHGGMFDS | ND / ND / ND / ND / ND / 3.44 |
| GFTLNDYGIS | VIYSDGIRTFYGDSVV | GRAAGTFDS | ND / ND / ND / ND / ND / ND |
| GFDLNTYGIS | VIYSDGRRTFYADKVK | GRTAGTFDS | -0.13 / -0.17 / -0.15 / -0.40 / -0.24 / -0.24 |
| GFTLDSYGIS | VIYADGRRTFYGDSVK | GREAGTFDS | 0.34 / 1.27 / 1.45 / 0.42 / 1.22 / 0.61 |
| GFSLDEYGIS | VIYADGVRKSYMNSVK | GNITGTLFA | ND / ND / ND / ND / ND / ND |
| GFKLNSYGIS | VIYSDGRRTFYGDSVK | GEAAGTFDT | 1.20 / 1.59 / 1.29 / 0.78 / 1.37 / 1.91 |
| GFDLNEYGIS | VIYADGRRTFYTDSVK | GTNAGTFDQ | 0.63 / 0.37 / 0.54 / 0.49 / 0.37 / 0.73 |
| GFDLNEYGVS | VIYADGMRRAYAANFK | GVTAGGLDI | ND / ND / ND / ND / ND / ND |
| GFDLEEYGIS | VIYADGLRVFYADSVK | GGFDGYKVR | ND / ND / ND / ND / ND / ND |
| GFDLNEYGIS | VIYADGSRTAYSDSVK | GENAGTFDI | 0.35 / 0.07 / -0.61 / 1.52 / 0.80 / 0.30 |
| GFTLNEYGIS | VIYSDGRRTFYGDSVK | GRTAVTFDD | ND / ND / ND / ND / ND / ND |
| GFSLNSYGIS | VIYSDGRRTFYTDSVK | GRAAGTMDS | ND / ND / ND / ND / ND / ND |
| GFELNSYGIS | VIYSDGRRTFYGDSVK | GKTAGTFDG | 0.42 / 0.31 / -0.21 / -0.28 / 0.20 / 0.00 |
| GFSLNEYGIS | VIYSDGRRTFYGDSVK | GRTAGTFSS | -0.41 / 0.01 / 0.02 / -0.31 / -0.55 / -0.28 |
| GFDLEEYGVS | VIYADGIRFAYAQDFK | GEAAGAFDL | 1.42 / 1.19 / 0.82 / 1.02 / 1.31 / 1.10 |
| GFSLNSYGIS | VIYADGRRTFYGDSVK | GTAAGTFDS | -0.38 / -0.52 / -0.62 / -0.62 / -0.25 / -0.42 |
| GFTLESYGIS | VIYADGRRTFYGDNVK | GRAAGTFDS | 0.49 / 0.40 / 0.04 / 0.39 / -0.13 / 1.57 |
| GFDLNSYGIS | VIYSDGRRTAYGDTVK | GRNAGTFDS | 0.00 / -0.32 / -0.32 / -0.20 / -0.37 / -0.16 |
| GFTLNEYGIS | VIYSDGRRTFYGDSVK | GRAADTFDQ | ND / ND / ND / ND / ND / ND |
| GFDLNEYGIS | VIYADGKRTAYSDSVK | GQVAGTFDV | -0.75 / -1.11 / -0.84 / -0.48 / -0.46 / -0.51 |
| GFTLNSYGIS | VIYSDGRRTFYDDSVK | GKLAGTFDT | 2.37 / 1.30 / 0.81 / 1.06 / 1.66 / 2.20 |
| GFDLNEYGIS | VIYADGRRTFYSDSVK | GEVAGTFVE | -0.11 / -0.30 / 0.95 / 0.49 / 1.44 / -0.34 |
| GFTLNKYGIS | VIYSDGRRTFYGDSVK | GREAGTFDS | 0.69 / 0.20 / 0.43 / 0.10 / 1.04 / 0.34 |
| GFQLNNYGIS | VIYSDGRRTFYGDSVK | GRAAGTFDS | 1.45 / 2.02 / 2.18 / 1.78 / 2.44 / 2.12 |
| GMDLNEYGIS | VIYADGRRTAYINQVK | GKQSMIVSS | ND / ND / ND / ND / ND / ND |

Excerpt, the final 5 entries:

| CDR-H1 | CDR-H2 | CDR-H3 | log10 Kd, replicates |
|---|---|---|---|
| GFTLNSYGIS | VIYSDGRRTFYDDSVK | GKLAGTFDT | 2.37 / 1.30 / 0.81 / 1.06 / 1.66 / 2.20 |
| GFDLNEYGIS | VIYADGRRTFYSDSVK | GEVAGTFVE | -0.11 / -0.30 / 0.95 / 0.49 / 1.44 / -0.34 |
| GFTLNKYGIS | VIYSDGRRTFYGDSVK | GREAGTFDS | 0.69 / 0.20 / 0.43 / 0.10 / 1.04 / 0.34 |
| GFQLNNYGIS | VIYSDGRRTFYGDSVK | GRAAGTFDS | 1.45 / 2.02 / 2.18 / 1.78 / 2.44 / 2.12 |
| GMDLNEYGIS | VIYADGRRTAYINQVK | GKQSMIVSS | ND / ND / ND / ND / ND / ND |

The parent sequence was in this pool as ten entries: three were never detected, three once, and four in most replicates, with averages from 0.34 to 2.37.
The authors' rule: three or more of the six replicates give a measured affinity, fewer mean a poor binder.
Empty control strains, which show no peptide, gave a signal in 1% of pairings with all heavy chain designs; the median was 2.08 and 95% of these signals were weaker than 0.84. No background was subtracted.